In USRE42700E1, “Induction of apoptosis in cancer cells” (Sanford-Burnham Medical Research Institute, priority 2001, dated 2011):

System: M07e or patient leukemia cells
Assay: effect of kinase inhibitors on 3-Cl-AHPC-mediated apoptosis
Assay type: cell-based, human

O=[N+]([O-])c1ccc(-c2nc(-c3ccncc3)c(-c3ccc(F)cc3)[nH]2)cc1 [PD169316]
effect on 3-Cl-AHPC-mediated apoptosis: did not inhibit or enhance 3-Cl-AHPC-mediated apoptosis
